In paper PMC3747596 (PLoS ONE, 2013):
Where “and” joins values, the source holds several entries; their conditions need not be identical. Equal values may be shown once.

By UniProt entry, the sequences of proteins in these tests, tags left out. Where a name states a change or a piece, a line headed by the entry shows the natural chain unless it says otherwise.
UniProt P41145: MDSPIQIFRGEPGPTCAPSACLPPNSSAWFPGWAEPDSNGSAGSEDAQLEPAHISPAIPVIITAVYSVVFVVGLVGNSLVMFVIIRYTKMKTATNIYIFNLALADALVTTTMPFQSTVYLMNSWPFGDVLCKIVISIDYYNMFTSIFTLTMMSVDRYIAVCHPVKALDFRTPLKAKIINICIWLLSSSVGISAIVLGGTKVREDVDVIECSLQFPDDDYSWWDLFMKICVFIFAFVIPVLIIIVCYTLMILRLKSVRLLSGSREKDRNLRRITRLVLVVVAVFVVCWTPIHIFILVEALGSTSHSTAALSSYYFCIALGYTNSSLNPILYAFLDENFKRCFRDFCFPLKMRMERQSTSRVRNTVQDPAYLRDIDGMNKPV

Target: κ opioid receptor (κ-OR) (Homo sapiens, UniProt P41145)
Assay: Radioligand displacement, κ

N=C(N)Nc1ccc2[nH]c3c(c2c1)C[C@@]1(O)[C@H]2Cc4ccc(O)c5c4[C@@]1(CCN2CC1CC1)[C@H]3O5 [GNTI, 5′-guanidinonaltrindole]
Ki (K i): 3 nM | Ki (Ki): 1 nM and 3.4 nM
